Biological target: Non-receptor tyrosine-protein kinase TYK2 (Homo sapiens, UniProt P29597)
Experiment: Inhibition of Tyk2 (unknown origin)

Chains of the proteins cited; added tags and fusions are not shown. Lines headed by an entry give the natural chain unless they say otherwise; changes in a name come on top.
UniProt P29597: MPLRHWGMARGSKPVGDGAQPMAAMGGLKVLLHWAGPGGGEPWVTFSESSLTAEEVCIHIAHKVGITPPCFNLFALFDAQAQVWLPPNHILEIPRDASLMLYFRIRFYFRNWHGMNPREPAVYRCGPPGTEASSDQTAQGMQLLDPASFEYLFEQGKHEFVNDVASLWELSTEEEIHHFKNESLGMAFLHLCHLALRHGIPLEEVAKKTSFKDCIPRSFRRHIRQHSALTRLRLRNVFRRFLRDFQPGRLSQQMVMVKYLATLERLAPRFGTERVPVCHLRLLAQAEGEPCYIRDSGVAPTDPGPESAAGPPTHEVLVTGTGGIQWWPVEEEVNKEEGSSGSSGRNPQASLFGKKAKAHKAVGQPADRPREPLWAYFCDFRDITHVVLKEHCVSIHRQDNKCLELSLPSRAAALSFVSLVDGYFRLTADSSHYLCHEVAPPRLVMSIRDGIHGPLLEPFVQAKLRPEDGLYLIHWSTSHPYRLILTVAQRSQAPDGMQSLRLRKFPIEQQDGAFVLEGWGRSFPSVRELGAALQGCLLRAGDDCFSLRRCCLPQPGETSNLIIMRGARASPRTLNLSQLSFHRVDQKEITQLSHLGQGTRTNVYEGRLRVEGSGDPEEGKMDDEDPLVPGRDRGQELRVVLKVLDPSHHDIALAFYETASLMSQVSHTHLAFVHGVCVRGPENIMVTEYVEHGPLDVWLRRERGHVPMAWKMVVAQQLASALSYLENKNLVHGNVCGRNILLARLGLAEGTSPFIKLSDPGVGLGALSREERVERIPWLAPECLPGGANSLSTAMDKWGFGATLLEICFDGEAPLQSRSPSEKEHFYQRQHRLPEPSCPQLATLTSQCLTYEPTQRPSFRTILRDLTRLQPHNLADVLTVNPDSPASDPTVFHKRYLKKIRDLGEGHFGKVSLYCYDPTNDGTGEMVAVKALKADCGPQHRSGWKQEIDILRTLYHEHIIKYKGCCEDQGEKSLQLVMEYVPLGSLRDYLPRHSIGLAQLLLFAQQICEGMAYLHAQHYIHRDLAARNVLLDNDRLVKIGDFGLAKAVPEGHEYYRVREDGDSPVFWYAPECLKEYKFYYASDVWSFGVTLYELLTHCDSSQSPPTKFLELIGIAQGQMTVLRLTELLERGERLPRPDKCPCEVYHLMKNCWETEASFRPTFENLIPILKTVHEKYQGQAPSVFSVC

Question: How did the IC50 turn out when `CC[C@@](C)(Nc1ccnc(-c2c[nH]c3ncccc23)n1)C(=O)NCC(F)(F)F` [DECERNOTINIB] was run?
Answer: 11 nM

From ChEMBL document CHEMBL3621116, “Benzimidazole Derivatives as Potent JAK1-Selective Inhibitors” (J Med Chem, 2015)
